Antibody variant affinities, Ab-14 heavy chain, assay 1

From the AlphaSeq antibody data of Engelhart et al. 2022 (doi:10.1038/s41597-022-01779-4), copy in the FLAb collection.

Target: peptide PDVDLGDISGINAS, taken from heptad repeat 2 (HR2) of SARS-CoV-2 spike.

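The parent was found by panning a naive human phage display library on the peptide. In library AAYL49, one, two or three CDR residues were substituted; doubles and triples were drawn at random. The scFvs were displayed on barcoded MATa yeast, the peptide on MATalpha yeast. The frequency of each diploid, read from paired DNA barcodes, reflects how well the two displayed proteins bind. Each replicate has its own calibration line, from reference interactions of the BCL2 family. Each pool was mated in three replicate cultures.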

Parent: Ab-14, a human scFv built as VH, a (GGGGS)3 linker, VL. Only the CDRs of the heavy chain vary.
VH: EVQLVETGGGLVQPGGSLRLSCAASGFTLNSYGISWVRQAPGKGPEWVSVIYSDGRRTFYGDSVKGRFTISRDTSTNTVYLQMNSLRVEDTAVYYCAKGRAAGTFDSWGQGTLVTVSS
VL: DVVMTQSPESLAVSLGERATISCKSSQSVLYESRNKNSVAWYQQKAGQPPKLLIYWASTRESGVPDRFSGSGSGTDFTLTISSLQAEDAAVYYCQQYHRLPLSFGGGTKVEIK

The parent's heavy chain CDRs are GFTLNSYGIS, VIYSDGRRTFYGDSVK, GRAAGTFDS; each variant's own CDRs replace them letter for letter.
Scale: log10 of Kd in nM, estimated from mating counts; low values are strong binders.
Replicates are averaged; those with no signal do not enter the mean.
"n.d." marks a missing value. The strain was present, yet no cells mated with the target were sequenced in that replicate, which points to weak or no binding.
For reference, the parent read 0.65 as the reference entry and 4.11 (one replicate of three) as a member of this library.
Background: pairings of library AAYL49 with three empty control strains gave a value in 15% of cases (median 4.06, 5th percentile 2.83). Values in that range, when seen in few replicates, are hard to tell from nonspecific mating. For each scFv, signals with the empty controls are counted beside the result, with their mean in brackets.

CDR-H1 | CDR-H2 | CDR-H3 | log10 Kd (nM) by replicate | mean log10 Kd (nM) | control signals
GFTLNSYGIS | VITSDGRRTFYGGSVK | GRAAGTFHS | n.d. 3.44 n.d. | 3.44 | 5/9 (4.06)
GFTLNSYGIS | VIYVDGRRTFYFDSIK | GRAAGTFDS | n.d. n.d. n.d. | n.d. | 3/9 (4.28)
YFTLNSYGIS | VIYPDGRRTFYGDSVK | GRAAGTFDS | 3.88 4.01 5.34 | 4.41 | 2/9 (4.20)
GFTLNSYGIS | VIYSDGRRTFYGDSVK | GRIAGTFDS | 0.67 0.97 0.72 | 0.79 | 0/9
GFTLNSYGIS | VIYSDGRRTFYVASVK | GRAAFTFDS | n.d. 4.04 n.d. | 4.04 | 2/9 (3.84)
IFKLNSYGIS | VIYSDGARTFYGDSVK | GRAAGTFDS | 5.47 n.d. n.d. | 5.47 | 0/9
GFTLNSYGIS | VIYMDGPRTFYGDSVK | GRQAGTFDS | n.d. n.d. n.d. | n.d. | 0/9
GFTLNSYGIS | VIYSDGNRTFYGDSFK | WRAAGTFDS | 1.34 1.34 1.51 | 1.40 | 2/9 (4.20)
SFTLNSYGIS | VIYSDFRRTFYGDSVK | GRAAGTFDS | 4.76 3.88 n.d. | 4.32 | 1/9 (3.67)
GFTKNDYGIS | VIYSDGRRTFYGDWVK | GRAAGTFDS | n.d. n.d. n.d. | n.d. | 0/9
GFTLNSYGIS | VIYSDGRRTFYGDSVK | GRAPGTFDI | 1.51 1.45 1.79 | 1.58 | 4/9 (4.43)
GFTLNSYGIS | VIYSDGRRTFYGDSVK | GRAEGTFDS | n.d. n.d. n.d. | n.d. | 0/9
GFTLHSYGIS | VIASDGRRTFYGDSVK | GRAAGTFDL | n.d. n.d. n.d. | n.d. | 1/9 (2.78)
GFTLNSYGIS | VQYSHGRRTFYGDSVK | GRSAGTFDS | 4.76 3.93 n.d. | 4.34 | 3/9 (4.91)
GFTLESYDIS | VIYSDGRRLFYGDSVK | GRAAGTFDS | n.d. n.d. 3.39 | 3.39 | 0/9
RFTLNSYSIS | VIYSDGRRTFYGDSVK | GRAAGTADS | n.d. n.d. n.d. | n.d. | 2/9 (3.33)
GFTLNSYGIT | VIYFKGRRTFYGDSVK | GRAAGTFDS | n.d. n.d. n.d. | n.d. | 0/9
GFTLNSYGIS | VIYSDWRRTFYCDYVK | GRAAGTFDS | n.d. n.d. n.d. | n.d. | 0/9
IFTLNPYGIS | TIYSDGRRTFYGDSVK | GRAAGTFDS | n.d. n.d. n.d. | n.d. | 2/9 (5.17)
GFTLNSCGIS | VIYSYGRRTFYGDSVK | GRAAGVFDS | n.d. n.d. n.d. | n.d. | 0/9
GFTGHSYDIS | VIYSDGRRTFYGDSVK | GRAAGTFDS | n.d. n.d. n.d. | n.d. | 0/9
GFTLNTYGIS | VIYSCGRRTFYGDSCK | GRAAGTFDS | n.d. n.d. n.d. | n.d. | 0/9
GFTLNSYGIS | VGYSDPRRTFYGDSCK | GRAAGTFDS | n.d. n.d. n.d. | n.d. | 1/9 (5.01)
GFTLNSYGIS | AIYSDGRRTFYGDSVK | GQAAGTIDS | n.d. n.d. n.d. | n.d. | 0/9
DFELLSYGIS | VIYSDGRRTFYGDSVK | GRAAGTFDS | 2.70 2.43 3.06 | 2.73 | 5/9 (4.22)
GFTLSSYGIS | VIYSDGRRTFYGDSVG | GRAAGTFKS | 4.29 3.90 5.80 | 4.66 | 4/9 (3.82)
GFTLNSYGIS | FIYSDGFRTFYGDSVA | GRAAGTFDS | n.d. n.d. n.d. | n.d. | 0/9
GFTLNSYGIG | VIYSCGRRTFYGDSVK | GRAAGTFGS | n.d. 3.40 n.d. | 3.40 | 5/9 (4.10)
GFTLNSYGIS | VIGSDGRRTFYGDSVK | GRAAGTFDS | n.d. n.d. n.d. | n.d. | 2/9 (2.70)
GFTLNSYGIS | PIYSDGRRTFYGDSVR | GRAAGWFDS | 5.77 n.d. 4.43 | 5.10 | 4/9 (4.13)
GFTLNSYGIS | VIYSDGRRTFYGDSAK | GRAAGFMDS | 1.24 1.09 1.48 | 1.27 | 1/9 (3.53)
GFTLNSYLIS | VIYSDGRRTFYGPSVK | GRAAGTFDW | n.d. n.d. n.d. | n.d. | 1/9 (2.89)
AFTLNSYGIS | VIYSDGRRTFYGRSVK | GHAAGTFDS | 2.39 2.42 2.74 | 2.52 | 1/9 (3.90)
GFTLNSYGIS | VIYSDGRRTFYGESVN | GRAAGTFDS | 1.25 1.34 1.22 | 1.27 | 4/9 (4.22)
GFTLNSYGIS | VIYSDHRRTFYFDSVK | GRAAGTFKS | n.d. n.d. n.d. | n.d. | 1/9 (4.29)

The opening 2 entries, copied out:

{"CDR-H1": "GFTLNSYGIS", "CDR-H2": "VITSDGRRTFYGGSVK", "CDR-H3": "GRAAGTFHS", "log10 Kd (nM) by replicate": "n.d. 3.44 n.d.", "mean log10 Kd (nM)": "3.44", "control signals": "5/9 (4.06)"}
{"CDR-H1": "GFTLNSYGIS", "CDR-H2": "VIYVDGRRTFYFDSIK", "CDR-H3": "GRAAGTFDS", "log10 Kd (nM) by replicate": "n.d. n.d. n.d.", "mean log10 Kd (nM)": "n.d.", "control signals": "3/9 (4.28)"}